Measured values: ChEMBL document CHEMBL1147701, “Novel 4-anilinoquinazolines with C-6 carbon-linked side chains: synthesis and structure-activity relationship of a series of potent, orally active, EGF receptor tyrosine kinase inhibitors” (Bioorg Med Chem Lett, 2006)

Chains of the proteins cited; added tags and fusions are not shown. Lines headed by an entry give the natural chain unless they say otherwise; changes in a name come on top.
UniProt P49841: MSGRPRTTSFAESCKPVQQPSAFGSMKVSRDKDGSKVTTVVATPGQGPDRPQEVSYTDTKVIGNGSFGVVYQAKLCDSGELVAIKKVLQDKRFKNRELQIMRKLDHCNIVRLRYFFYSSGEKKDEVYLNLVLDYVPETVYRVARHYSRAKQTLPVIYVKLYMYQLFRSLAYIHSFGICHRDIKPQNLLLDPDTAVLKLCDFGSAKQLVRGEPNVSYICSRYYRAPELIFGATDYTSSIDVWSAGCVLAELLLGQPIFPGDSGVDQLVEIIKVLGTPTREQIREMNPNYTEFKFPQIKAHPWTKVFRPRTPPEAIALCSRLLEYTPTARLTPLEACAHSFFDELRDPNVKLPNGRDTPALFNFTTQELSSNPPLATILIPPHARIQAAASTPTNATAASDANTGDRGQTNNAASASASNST
UniProt P12931: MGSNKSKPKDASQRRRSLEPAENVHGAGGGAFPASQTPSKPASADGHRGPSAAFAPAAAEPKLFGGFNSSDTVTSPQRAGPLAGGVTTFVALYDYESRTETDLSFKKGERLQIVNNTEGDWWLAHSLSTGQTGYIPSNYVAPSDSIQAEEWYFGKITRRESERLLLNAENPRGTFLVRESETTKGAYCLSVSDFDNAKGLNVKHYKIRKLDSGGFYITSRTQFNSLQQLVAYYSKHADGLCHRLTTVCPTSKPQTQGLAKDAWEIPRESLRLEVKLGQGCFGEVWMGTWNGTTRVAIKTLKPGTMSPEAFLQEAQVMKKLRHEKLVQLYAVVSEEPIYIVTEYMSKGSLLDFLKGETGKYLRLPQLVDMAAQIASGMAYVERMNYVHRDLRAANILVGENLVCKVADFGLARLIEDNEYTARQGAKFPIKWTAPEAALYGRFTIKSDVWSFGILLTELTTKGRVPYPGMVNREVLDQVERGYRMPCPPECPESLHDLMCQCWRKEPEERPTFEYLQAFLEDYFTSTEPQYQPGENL
UniProt P06239: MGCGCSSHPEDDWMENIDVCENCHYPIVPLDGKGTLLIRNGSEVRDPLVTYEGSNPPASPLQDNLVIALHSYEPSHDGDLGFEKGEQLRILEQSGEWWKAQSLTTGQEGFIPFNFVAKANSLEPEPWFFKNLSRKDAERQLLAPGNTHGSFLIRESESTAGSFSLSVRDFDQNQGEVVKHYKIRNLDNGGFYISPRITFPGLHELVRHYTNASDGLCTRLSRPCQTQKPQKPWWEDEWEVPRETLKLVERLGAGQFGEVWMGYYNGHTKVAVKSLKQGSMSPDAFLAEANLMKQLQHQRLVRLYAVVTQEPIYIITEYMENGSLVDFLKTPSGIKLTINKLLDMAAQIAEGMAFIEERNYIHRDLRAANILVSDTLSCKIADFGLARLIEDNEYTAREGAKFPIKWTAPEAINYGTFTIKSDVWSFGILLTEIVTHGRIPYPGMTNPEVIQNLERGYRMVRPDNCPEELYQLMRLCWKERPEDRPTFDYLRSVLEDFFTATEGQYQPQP

What was measured:
[1] = molecular target: Glycogen synthase kinase-3 beta (Homo sapiens, UniProt P49841); assay: Inhibition of GSK3-beta
[2] = molecular target: T1, Serine/threonine-protein kinase Chk1 (Homo sapiens, UniProt O14757); assay: Inhibition of CHK1
T1 sequence (O14757 whole entry): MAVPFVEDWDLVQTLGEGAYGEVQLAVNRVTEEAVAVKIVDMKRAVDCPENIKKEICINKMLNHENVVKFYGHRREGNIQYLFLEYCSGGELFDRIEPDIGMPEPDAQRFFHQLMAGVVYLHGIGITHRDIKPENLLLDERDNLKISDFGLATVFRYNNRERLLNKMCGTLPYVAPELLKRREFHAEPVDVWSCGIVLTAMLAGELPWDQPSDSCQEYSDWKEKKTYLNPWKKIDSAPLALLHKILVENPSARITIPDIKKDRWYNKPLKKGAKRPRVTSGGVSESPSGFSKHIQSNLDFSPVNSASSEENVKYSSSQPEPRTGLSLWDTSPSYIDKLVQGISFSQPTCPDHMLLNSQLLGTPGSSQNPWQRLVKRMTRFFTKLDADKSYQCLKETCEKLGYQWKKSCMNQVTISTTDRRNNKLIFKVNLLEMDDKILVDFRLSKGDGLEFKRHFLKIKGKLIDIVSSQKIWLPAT

[3] = molecular target: Proto-oncogene tyrosine-protein kinase Src (Homo sapiens, UniProt P12931); assay: Inhibition of Src
[4] = molecular target: Tyrosine-protein kinase Lck (Homo sapiens, UniProt P06239)

Row | Structure (SMILES) | IC50 [1] | IC50 [2] | IC50 [3] | IC50 [4]
1 | COc1cc2ncnc(Nc3cccc(Cl)c3F)c2cc1CN[C@H](C)C(N)=O | > 10 µM | > 10 µM | – | –
2 | COc1cc2ncnc(Nc3cccc(Cl)c3F)c2cc1CN(C)CC(N)=O | > 10 µM | – | > 10 µM | > 10 µM
